From PubChem BioAssay AID504558 (Broad Institute, 2011)
The entries are a selection whose mix differs from that of the whole data set. Activity calls are given as the source filed them. No stated cut-off is given here; in the data, active means inhibition above about 41%; inconclusive means no clear call, values can overlap the other calls; inactive means below that.

Test: blockers of LMP1-induced NF-kB reporter signal – cell-based, luminescence, single point, primary screen (AID 504558);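 further: 0% = neutral control wells and 100% = reference inhibitor control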
Settings: LMP1-induced NF-kappaB luciferase reporter cells, at 12.5 µM, stronger effect = higher value

Row | SMILES | inhibition
1 | Cc1cc(C)cc(OP(C)(N)=O)c1 (stereo unspecified) | inactive: -5.86%
2 | COc1ccc(OP(C)(=O)Nc2cccc(F)c2)cc1 (stereo unspecified) | inactive: -3.25%
3 | COc1ccccc1OP(C)(=O)Nc1cc(Cl)ccc1C (stereo unspecified) | inactive: -2.56%
4 | Cc1ccc(NP(C)(=O)Oc2ccccc2)c(C)c1 (stereo unspecified) | inactive: 10.4%
5 | COc1ccccc1OP(C)(=O)Nc1ccc(C)cc1 (stereo unspecified) | inactive: -1.18%
6 | CCOC(=O)c1ccc(NP(C)(=O)Oc2ccccc2)cc1 (stereo unspecified) | inactive: -4.85%
7 | O=[N+]([O-])c1ccc2c(c1)C=Nc1ccccc1O2 | inactive: 10.4%
8 | Cc1cccc(C)c1OP(C)(N)=O (stereo unspecified) | inactive: -12.2%
9 | CC(C)(C)c1ccc(OP(C)(=O)Nc2ccc(SC(F)(F)F)cc2)cc1 (stereo unspecified) | inactive: 2.86%
10 | O=[N+]([O-])c1cc([N+](=O)[O-])c(Nc2cccnc2)c([N+](=O)[O-])c1 | inactive: -9.25%
11 | CCN(CC)CCCOC(=O)C(O)(c1ccccc1)c1ccccc1 | inactive: -10.8%
12 | CP(=O)(Nc1ccccn1)Oc1ccc(Cl)cc1 (stereo unspecified) | inactive: -1.73%
13 | CCOC(=O)c1ccc(NP(C)(=O)Oc2ccc(OC)cc2)cc1 (stereo unspecified) | inactive: -7.42%
14 | CCOP(C)(=S)SCC(=O)NC(C)C(=O)O (stereo unspecified) | inactive: -6.94%
15 | Cc1cc(C)cc(OP(C)(=O)Nc2ccc(SC(F)(F)F)cc2)c1 (stereo unspecified) | inactive: 4.46%
16 | CP(=O)(NC(=O)Nc1ccccc1)Oc1ccccc1 (stereo unspecified) | inactive: 0.916%
17 | CCc1ccc(OP(C)(=O)N2CCN(c3ccc([N+](=O)[O-])cc3)CC2)cc1 (stereo unspecified) | inactive: 15.4%
18 | CP(=O)(Oc1ccccc1)OC(c1ccccc1)C(F)(F)F (stereo unspecified) | inactive: -2.61%
19 | Cc1cccc(C)c1OP(C)(=O)Nc1ccc(SC(F)(F)F)cc1 (stereo unspecified) | inactive: -4.35%
20 | Cc1ccc(Nc2c([N+](=O)[O-])cc([N+](=O)[O-])cc2[N+](=O)[O-])cc1 | inactive: -2.37%
21 | CP(=O)(Nc1ccccc1Br)Oc1ccccc1 (stereo unspecified) | inactive: 1.17%
22 | COc1ccccc1OP(C)(=O)Nc1ccccc1 (stereo unspecified) | inactive: 1.7%
23 | CP(=S)(Nn1cnnc1)Oc1ccccc1 (stereo unspecified) | inactive: -7.63%

Row | SMILES | inhibition
24 | CCCOc1ccc(NP(C)(=O)Oc2ccc(Cl)cc2)cc1 (stereo unspecified) | inactive: 6.26%
25 | CP(=O)(Nc1ccc(SC(F)(F)F)cc1)Oc1ccccc1 (stereo unspecified) | inactive: 7.17%
26 | CN1CCCCC1COC(=O)C1(O)c2ccccc2CCc2ccccc21 (stereo unspecified) | inactive: 4.47%
27 | COc1ccccc1OP(C)(=O)Nc1c(C)cccc1C (stereo unspecified) | inactive: -12.4%
28 | CCOC(=O)C(CC)C1=NC(C)(C)Cc2ccccc21.O=[N+]([O-])c1cc([N+](=O)[O-])c(O)c([N+](=O)[O-])c1 (stereo unspecified) | inactive: -1.64%
29 | CC1=C2N=C(C=C3N=C(C(C)=C4[N-][C@@](C)([C@@H]5N=C1[C@](C)(CCC(=O)NC[C@@H](C)OP(=O)([O-])O[C@H]1[C@@H](O)[C@@H](n6cnc7cc(C)c(C)cc76)O[C@@H]1CO)[C@H]5CC(N)=O)[C@@](C)(CC(N)=O)[C@@H]4CCC(N)=O)[C@@](C)(CC(N)=O)[C@@H]3CCC(N)=O)C(C)(C)[C@@H]2CCC(N)=O.[C-]#N.[Co+3] | inactive: -5.13%
30 | O=[N+]([O-])c1cc([N+](=O)[O-])c(Nc2nnnn2CCO)c([N+](=O)[O-])c1 | inactive: -1.49%
31 | Cc1nc2ccc3ccccc3c2s1.O=[N+]([O-])c1cc([N+](=O)[O-])c(O)c([N+](=O)[O-])c1 | inactive: 0.917%
32 | O=[N+]([O-])c1cc([N+](=O)[O-])c(-c2cnn(-c3ccccc3)c2)c([N+](=O)[O-])c1 | inactive: -14.2%
33 | O=[N+]([O-])c1cc([N+](=O)[O-])c(-n2nnc3ccccc32)c([N+](=O)[O-])c1 | inactive: 3.02%
34 | Cc1ccc(C)c(NP(C)(=O)Oc2ccccc2)c1 (stereo unspecified) | inactive: -1.93%
35 | Cc1cc(C)cc(OP(C)(=O)Nc2ccccn2)c1 (stereo unspecified) | inactive: 6.35%
36 | CP(=O)(Nc1cccc(Br)c1)Oc1ccccc1 (stereo unspecified) | inactive: -4.34%
37 | CCOC(=O)c1ccc(NP(C)(=O)Oc2cc(C)cc(C)c2)cc1 (stereo unspecified) | active: 69.1%
38 | Cc1cc(C)cc(OP(C)(=O)Nc2ccc(C)cc2C)c1 (stereo unspecified) | inactive: -10.9%
39 | COc1ccccc1OP(C)(=O)Nc1cccc(Br)c1 (stereo unspecified) | inactive: 3.84%
40 | CC1=NCCc2c1[nH]c1ccccc21.O=[N+]([O-])c1cc([N+](=O)[O-])c(O)c([N+](=O)[O-])c1 | inactive: -8.55%
41 | O=C(O)c1cccc(Nc2c([N+](=O)[O-])cc([N+](=O)[O-])cc2[N+](=O)[O-])c1 | inactive: -6.29%
42 | CP(=O)(Nc1ccccc1)Oc1ccc(F)cc1 (stereo unspecified) | inactive: -5.06%
43 | O=[N+]([O-])c1cc([N+](=O)[O-])c(OC2CCCCC2O)c([N+](=O)[O-])c1 (stereo unspecified) | inactive: -0.534%
44 | CCCCCOc1ccc(NP(C)(=O)Oc2ccc(Cl)cc2Cl)cc1 (stereo unspecified) | inactive: -6.12%
45 | Cc1c([N+](=O)[O-])cc([N+](=O)[O-])c(Br)c1[N+](=O)[O-] | inactive: 2.8%
46 | CCN(CC)CCCOC(=O)C(O)(c1ccccc1)C1CCCCC1 (stereo unspecified) | inactive: 3.52%
